Consider one substance from patent US10842892B2, “Methods and apparatus for synthesizing imaging agents, and intermediates thereof” (Lantheus Medical Imaging, Inc., priority 2010, dated 2020).

Several values for one entry are separate records, joined by “and”; a condition that tells them apart may be missing. Equal entries are not always repeated.

The subject of this experiment is viable left ventricle. Description: left ventricular viability after myocardial infarction, imaging agent 1 versus FDG. Particulars: rat, in vivo. The protocol:
MI was induced in rats by 30 minutes of\ coronary occlusion followed reperfusion. Imaging agent 1 (1 mCi) and FDG (1 mCi) cardiac imaging in 2 days apart was performed in rats of before, two days (early MI) and four weeks (late MI) post surgery. A regimen of glucose and insulin was injected before FDG imaging to ensure high cardiac uptake. Viable left ventricle was quantified in images as the volume with ≥50% of maximum activity.

Turning to “^18F fluorodeoxyglucose [FDG, reference compound]”, the left ventricular volume was 1.11±0.07 cm3; the “viable left ventricular tissue volume” value was 0.75±0.04 cm3 and 0.99±0.09 cm3.
